Measurements taken from PubChem BioAssay AID743266 (National Center for Advancing Translational Sciences (NCATS), 2014).
Only a part is listed here, and it is no random draw. Some salts or complexes appear as unconnected parts, following the source record. Activity calls are given as the source filed them. Calls follow the shape of the dose curve; as a rule, active = well fitted activation curve with a large enough effect; inconclusive = small, poorly fitted or top-dose-only effect, or another doubt; inactive = no such curve, though single readings can be large or run the other way.
Also: nearly all actives have a fitted effect of over 55% in size.

By UniProt entry, the sequences of proteins in these tests, tags left out.
UniProt Q03431, whole entry: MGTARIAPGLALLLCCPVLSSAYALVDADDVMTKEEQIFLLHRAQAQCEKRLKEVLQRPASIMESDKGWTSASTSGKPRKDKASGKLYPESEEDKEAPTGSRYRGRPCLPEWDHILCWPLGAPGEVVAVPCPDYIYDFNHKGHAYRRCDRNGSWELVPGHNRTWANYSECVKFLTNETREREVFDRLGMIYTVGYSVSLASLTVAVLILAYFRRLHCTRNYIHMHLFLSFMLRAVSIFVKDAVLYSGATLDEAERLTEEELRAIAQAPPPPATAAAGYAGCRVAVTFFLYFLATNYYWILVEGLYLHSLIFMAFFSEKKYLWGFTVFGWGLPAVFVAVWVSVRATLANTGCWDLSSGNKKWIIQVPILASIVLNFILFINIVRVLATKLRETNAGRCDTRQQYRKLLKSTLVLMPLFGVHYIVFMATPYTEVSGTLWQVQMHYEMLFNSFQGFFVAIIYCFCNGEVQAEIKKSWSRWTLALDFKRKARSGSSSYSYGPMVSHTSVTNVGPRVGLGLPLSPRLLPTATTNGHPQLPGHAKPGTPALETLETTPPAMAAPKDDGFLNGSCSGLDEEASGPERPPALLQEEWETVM

These molecules were tested against Parathyroid hormone/parathyroid hormone-related peptide receptor (Homo sapiens) (UniProt Q03431) (assay: qHTS for PTHR1 Agonists: Primary Screen). Details: HEK293 GP2 PTHR1 cells, GloSensor cAMP luminescence, 1 h; activation: at 115 µM (top of the series) unless noted.
For `CC(C)(C)n1nnnc1C(c1ccccc1OC(F)(F)F)N1CCC(n2c(=O)[nH]c3ccccc32)CC1` (centres undefined), the activation was inactive: -12.8%.
For `O=C(NCC1(N2CCCCC2)CCCCC1)c1ccc(OC(F)F)cc1`, the activation was inactive: -5.02%.
For `CCN1CCC(Nc2ccc(Cl)cc2)CC1`, the activation was inactive: -22.9%.
`O=c1[nH]c2ccccc2n1C1CCN(C(c2ccccc2OC(F)(F)F)c2nnnn2C2CCCC2)CC1` (centres undefined) was tested, and the activation was inactive: -25.1%.
For `N#CC1(Nc2ccccc2)CCN(CCc2ccccc2)CC1`, the activation was inactive: -11.2% [at 57.5 µM].
For `CCOc1ccc(C(=O)NCC2(N3CCOCC3)CCCCC2)cc1`, the activation was “inactive”.
For `CSc1ccc(C(=O)NCC2(N3CCOCC3)CCCCC2)cc1`, the activation was inactive: -14.8%.
With `O=[N+]([O-])c1cc([N+](=O)[O-])c(NCC2CCS(=O)(=O)C2)c([N+](=O)[O-])c1` (centres undefined) the activation was inactive: -17.1%.
`CCCOc1cccc(C(=O)NCC2(N3CCOCC3)CCCCC2)c1` was tested, and the activation was “inactive”.
In the case of `O=C(NCC1(N2CCCCC2)CCCCC1)c1cccc(C(F)(F)F)c1`, the activation is reported as “inactive”.
With `COc1cc(C(=O)NCC2(N3CCCCC3)CCCCC2)ccc1OC(F)F` the activation was “inactive”.
`O=C(NCC1(N2CCOCC2)CCCCC1)c1cc(=O)[nH]c2ccccc12` was tested, and the activation was inactive: -4.45% [at 57.5 µM].
For `CN1CCN(CCOC(=O)C(O)(c2ccccc2)c2ccccc2)CC1`, the activation was “inactive”.
For `COc1ccc(NC2CCN(C(=O)OC(C)(C)C)CC2)cc1`, the activation was inactive: -30.8%.
With `CC(C)c1ccc(C(=O)NCC2(N3CCOCC3)CCCCC2)cc1` the activation was inactive: -21.5%.
In the case of `CCCCn1nnnc1C(c1cccc2ccccc12)N1CCC(n2c(=O)[nH]c3ccccc32)CC1` (centres undefined), the activation is reported as inactive: -12.5%.
For `CCCCn1nnnc1C(c1ccccc1OC(F)(F)F)N1CCC(n2c(=O)[nH]c3ccccc32)CC1` (centres undefined), the activation was inactive: -5.63%.
For `CC(C)c1ccc(NC2CCN(C(=O)OC(C)(C)C)CC2)cc1`, the activation was inactive: -27.8%.
In the case of `COc1ccc(CN(CCCl)CCCl)cc1Cl`, the activation is reported as “inactive”.
In the case of `O=[N+]([O-])c1cc([N+](=O)[O-])c(OC2CCCCC2O)c([N+](=O)[O-])c1` (centres undefined), the activation is reported as inactive: -48.1%.
`CN(C)c1cccc(C(=O)NCC2(N3CCCCC3)CCCCC2)c1` was tested, and the activation was inactive: 5.34%.
With `COc1cc(OC)c(C(=O)NCC2(N(C)C)CCCCC2)cc1OC` the activation was “inactive”.
In the case of `CCC(c1nnnn1C(C)(C)C)N1CCC(n2c(=O)[nH]c3ccccc32)CC1` (centres undefined), the activation is reported as inactive: -15.3%.
In the case of `O=C(NCC1(N2CCOCC2)CCCCC1)c1cc(F)c(F)cc1Cl`, the activation is reported as “inactive”.
In the case of `CCN(CC)CCCNc1ccccc1[N+](=O)[O-].O=[N+]([O-])c1cc([N+](=O)[O-])c(O)c([N+](=O)[O-])c1`, the activation is reported as inactive: -6.09% [at 57.5 µM].
`CCCCn1nnnc1C(c1ccnc2ccccc12)N1CCC(n2c(=O)[nH]c3ccccc32)CC1` (centres undefined) was tested, and the activation was inactive: -14.2%.
`O=C(OC1CN2CCC1CC2)c1ccc([N+](=O)[O-])cc1` (centres undefined) was tested, and the activation was “inactive”.
In the case of `CN1CCC(Nc2cccc(F)c2)CC1`, the activation is reported as “inactive”.
In the case of `O=C(NCC1(N2CCCCC2)CCCCC1)c1cncc(Br)c1`, the activation is reported as “inactive”.
In the case of `COc1ccc2c(c1O)-c1c(O)c(OC)cc3c1[C@H](C2)[N+](C)(C)CC3.O=[N+]([O-])c1cc([N+](=O)[O-])c([O-])c([N+](=O)[O-])c1[O-]`, the activation is reported as inactive: -24.4%.
With `O=[N+]([O-])c1cc([N+](=O)[O-])c(Nc2ccc(Cl)cc2)c([N+](=O)[O-])c1` the activation was “inactive”.
In the case of `COc1ccc(C(c2nnnn2C2CCCC2)N2CCC(n3c(=O)[nH]c4ccccc43)CC2)cc1` (centres undefined), the activation is reported as inactive: -6.67%.
For `CCCCOc1ccccc1C(=O)NCC1(N2CCOCC2)CCCCC1`, the activation was inactive: -37.5%.
`Cc1ccc(C(=O)NCC2(N(C)C)CCCCC2)o1` was tested, and the activation was inactive: -52.5%.
`O=C(NCC1(N2CCOCC2)CCCCC1)c1ccccc1Br` was tested, and the activation was “inactive”.
With `CCCOc1ccc(C(=O)NCC2(N(C)C)CCCCC2)cc1OC` the activation was “inactive”.
In the case of `COc1ccc(C(=O)NCC2(N3CCCCC3)CCCCC2)cc1`, the activation is reported as inactive: 20.4%.
For `CC(C)(C)OC(=O)N1CCC(N(C(=O)c2ccccc2)c2ccc(F)cc2)CC1`, the activation was inactive: -14.5%.
For `CCC(c1nnnn1C1CCCC1)N1CCC(n2c(=O)[nH]c3ccccc32)CC1` (centres undefined), the activation was “inactive”.
For `O=C(NCC1(N2CCCCC2)CCCCC1)c1ccc(=O)[nH]c1`, the activation was “inactive”.
`CCCCn1nnnc1C(CC)N1CCC(n2c(=O)[nH]c3ccccc32)CC1` (centres undefined) was tested, and the activation was inactive: -18.1%.
In the case of `O=C(NCC1(N2CCCCC2)CCCCC1)c1cccs1`, the activation is reported as “inactive”.
For `CCCCn1nnnc1C(c1cccs1)N1CCC(n2c(=O)[nH]c3ccccc32)CC1` (centres undefined), the activation was inactive: -1.4%.
For `CSc1ccccc1C(=O)NCC1(N2CCCCC2)CCCCC1`, the activation was “inactive”.
`Cc1cccc(NC2(C#N)CCN(Cc3ccccc3)CC2)c1` was tested, and the activation was inactive: -14.4%.
For `O=C(NCC1(N2CCCCC2)CCCCC1)c1ccc(Cl)nc1`, the activation was inactive: -6.77%.
With `O=c1[nH]c2ccccc2n1C1CCN(C(c2ccccc2OC(F)(F)F)c2nnnn2C2CCCCC2)CC1` (centres undefined) the activation was “inactive”.
`Cc1cc(C)cc(N(C(=O)c2ccccc2)C2CCN(C(=O)OC(C)(C)C)CC2)c1` was tested, and the activation was inactive: -6.53%.
With `O=C(NCC1(N2CCOCC2)CCCCC1)c1cc2ccccc2o1` the activation was inactive: -3.79% [at 57.5 µM].
In the case of `O=C(NCC1(N2CCCCC2)CCCCC1)c1ccc(Cl)s1`, the activation is reported as “inactive”.
With `N#CC1(Nc2ccccc2)CCN(Cc2ccccc2)CC1` the activation was inactive: 19.8%.
For `O=C(OC1CN2CCC1CC2)C1c2ccccc2Oc2ccccc21` (centres undefined), the activation was “inactive”.
For `O=c1[nH]c2ccccc2n1C1CCN(C(c2cc3ccccc3o2)c2nnnn2C2CCCCC2)CC1` (centres undefined), the activation was “inactive”.
In the case of `COc1ccc(Cl)cc1C(=O)NCC1(N2CCOCC2)CCCCC1`, the activation is reported as inactive: -22.5%.
`O=C1C(O)=C([N+](=O)[O-])C(=O)C(O)=C1[N+](=O)[O-]` was tested, and the activation was “inactive”.
In the case of `CCOC(=O)N1CCC(Nc2ccc(OC)cc2)CC1`, the activation is reported as inactive: -7.23%.
`CCCCn1nnnc1C(c1ccc(OC)cc1)N1CCC(n2c(=O)[nH]c3ccccc32)CC1` (centres undefined) was tested, and the activation was inactive: -9.11%.
For `O=C(NCC1(N2CCOCC2)CCCCC1)c1ccc(Cl)cc1`, the activation was inactive: -18.4%.
`CC(C)(C)n1nnnc1C(c1ccccc1)N1CCC(n2c(=O)[nH]c3ccccc32)CC1` (centres undefined) was tested, and the activation was inactive: -4.93%.
